Experiment [1] concerns the target T1, CXCR4 (Homo sapiens, UniProt P61073).
Experiment [2] has as its target T1, CXCR4. Particulars: CCRF-CEM cells; 2.5 nM SDF-1α; mean ± SE; read-out: IC50, SDF-1α mediated calcium flux; cited from earlier work.
Another experiment has as its target T2, R334X CXCR4 variant (Homo sapiens, UniProt P61073).
T2 construct: expressed in transfected cells; host or cells: Cf2Th (canine thymus cell line lacking CXCR4)
Particulars: R334X variant in Cf2Th; read-out: IC50, inhibition of SDF-1α-mediated calcium flux; cited from earlier work. (Calcium assays in cells follow changes in intracellular calcium, usually with a dye or a luminescent sensor.)

By UniProt entry, the sequences of proteins in these tests, tags left out. Where a name states a change or a piece, a line headed by the entry shows the natural chain unless it says otherwise. Residues count along the entry.
UniProt P61073, whole entry: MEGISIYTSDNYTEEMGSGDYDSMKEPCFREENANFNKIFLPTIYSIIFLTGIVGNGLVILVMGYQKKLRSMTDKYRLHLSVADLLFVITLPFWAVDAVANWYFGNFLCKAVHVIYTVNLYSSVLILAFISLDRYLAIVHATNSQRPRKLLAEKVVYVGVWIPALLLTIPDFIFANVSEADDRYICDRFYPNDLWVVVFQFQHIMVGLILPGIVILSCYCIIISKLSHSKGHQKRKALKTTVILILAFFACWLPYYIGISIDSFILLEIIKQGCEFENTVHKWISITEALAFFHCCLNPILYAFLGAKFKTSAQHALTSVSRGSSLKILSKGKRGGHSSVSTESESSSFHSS
UniProt P61073, 1-333 limits assumed: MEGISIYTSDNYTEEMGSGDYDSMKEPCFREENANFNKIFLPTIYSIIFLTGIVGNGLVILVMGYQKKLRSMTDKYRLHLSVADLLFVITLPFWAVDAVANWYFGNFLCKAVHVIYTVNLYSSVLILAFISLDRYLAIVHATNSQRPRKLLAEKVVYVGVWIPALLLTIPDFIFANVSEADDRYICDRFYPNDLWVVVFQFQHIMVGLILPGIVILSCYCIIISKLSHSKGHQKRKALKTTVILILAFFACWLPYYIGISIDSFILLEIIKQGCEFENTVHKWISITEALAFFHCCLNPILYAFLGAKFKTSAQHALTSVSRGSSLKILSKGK
UniProt P61073, 1-342 limits assumed: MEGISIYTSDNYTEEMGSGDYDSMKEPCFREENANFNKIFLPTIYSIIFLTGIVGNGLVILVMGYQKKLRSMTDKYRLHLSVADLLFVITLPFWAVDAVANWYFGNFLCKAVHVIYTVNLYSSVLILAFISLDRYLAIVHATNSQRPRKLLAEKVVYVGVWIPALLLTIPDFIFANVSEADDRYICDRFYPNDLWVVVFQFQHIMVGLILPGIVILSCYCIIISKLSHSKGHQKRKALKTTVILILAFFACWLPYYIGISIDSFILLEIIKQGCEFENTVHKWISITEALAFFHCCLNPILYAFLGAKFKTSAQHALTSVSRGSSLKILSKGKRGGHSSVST

The target in another experiment is T3, E343X CXCR4 variant (Homo sapiens, UniProt P61073).
T3 construct: expressed in transfected cells; host or cells: Cf2Th (canine thymus cell line lacking CXCR4)
The settings on record: E343X variant in Cf2Th; read-out: IC50, inhibition of SDF-1α-mediated calcium flux; cited from earlier work.

Experiment [3] deals with T1, CXCR4. Particulars: read-out: IC50, inhibition of [125I]-SDF-1α ligand binding; CCRF-CEM cells; single site binding model; mean ± SE; cited from earlier work.
In experiment [4] the target is T1, CXCR4. Particulars: read-out: IC50, Eu-GTP binding; mean ± SE; cited from earlier work.
Experiment [5] deals with T1, CXCR4. The settings on record: read-out: IC50, [35S]-GTPγS binding; mean ± SE; cited from earlier work.
For experiment [6], the target named is T1, CXCR4. The settings on record: read-out: IC50, SDF-1α mediated chemotaxis; CCRF-CEM cells; mean ± SE; cited from earlier work.

Among the data in patent US11219621B2, “Methods for treating immunodeficiency disease” (X4 Pharmaceuticals, Inc., priority 2015, dated 2022) are IC50 values, retold here.

What is called IC50 is the midpoint of a concentration-inhibition curve.

Like-named read-outs stand apart in the source and are kept apart here.

With `NCCCCN(Cc1nc2ccccc2[nH]1)[C@H]1CCCc2cccnc21` [X4P-001], the 50% inhibitory concentration (IC50) at CXCR4 [1] is 0.0215 µM; on CXCR4 [2], 0.009 ± 0.002 µM; on R334X CXCR4 variant it was 0.0085 µM; at E343X CXCR4 variant, 0.0046 µM; at CXCR4 [3], 0.0125 ± 0.0013 µM; on CXCR4 [4], 0.0398 ± 0.0025 µM. For the same compound, the IC50 was 0.019 ± 0.0041 µM at CXCR4 [5] and 0.019 ± 0.004 µM at CXCR4 [6].
